This is an account of results in PubChem BioAssay AID2797 (The Scripps Research Institute Molecular Screening Center, 2010).

Chains of the proteins cited; added tags and fusions are not shown.
UniProt P37288, whole entry: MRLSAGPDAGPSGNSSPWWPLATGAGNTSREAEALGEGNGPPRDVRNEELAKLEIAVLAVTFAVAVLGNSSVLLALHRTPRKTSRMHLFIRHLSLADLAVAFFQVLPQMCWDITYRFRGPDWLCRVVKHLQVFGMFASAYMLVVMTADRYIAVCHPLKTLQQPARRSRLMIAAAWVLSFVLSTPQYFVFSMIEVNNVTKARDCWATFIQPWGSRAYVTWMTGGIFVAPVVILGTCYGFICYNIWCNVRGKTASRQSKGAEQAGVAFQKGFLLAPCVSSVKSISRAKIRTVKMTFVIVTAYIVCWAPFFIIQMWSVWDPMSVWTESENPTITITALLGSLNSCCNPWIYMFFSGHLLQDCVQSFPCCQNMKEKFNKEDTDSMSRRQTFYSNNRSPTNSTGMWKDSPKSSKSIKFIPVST

This is a selection; strong and weak results do not stand in their true shares. The source made the active and inactive calls.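 How the source made its calls: active means activation above the mean activation of all tested compounds plus 3 SD, per screening run (cut at about 20% in these data); inactive means the rest.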

The target of this test is Vasopressin V1a receptor (Homo sapiens) (UniProt P37288). Description: V1R activation via calcium rise – fluorescence, CHO-V1R cells, counter-screen for OXTR agonist project, primary screen (AID 2797).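 Further: signal is peak over basal fluorescence ratio across a 100 second FLIPR read.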 The conditions noted are these: Fluo-8 calcium fluorescence, agonist mode, at 3 µM, hits give high values, 0% DMSO, 100% 3 nM vasopressin.
As for `CCc1ccc(OP(C)(=O)O)cc1`, the activation was inactive: 0.34%. With `COc1ccccc1OP(C)(=O)Nc1ccc(C)cc1C` (configuration not stated), the activation was inactive: 0%. As for `CP(=O)(Nc1ccccn1)Oc1ccccc1` (configuration not stated), the activation was inactive: -0.17%.

As to `Cc1c(NP(C)(=O)Oc2ccc(C(C)C)cc2)c(=O)n(-c2ccccc2)n1C` (configuration not stated), the activation is inactive: -0.1%. As for `O=[N+]([O-])c1cc([N+](=O)[O-])c(Nc2ccccn2)c([N+](=O)[O-])c1`, the activation is inactive: 3.06%.

In the case of `CN(C)CCOC(=O)C(O)(c1ccccc1)C1CCCC1` (configuration not stated), the activation was inactive: -0.43%.

For `COc1ccc(OP(C)(=O)Nc2ccccn2)cc1` (configuration not stated), the activation was inactive: 0.7%.

For `COc1ccccc1OP(C)(=O)Nc1ccc(Br)cc1` (configuration not stated), the activation is inactive: -1.17%. As to `CP(=O)(Nc1ccc(Cl)cc1Cl)Oc1ccccc1` (configuration not stated), the activation is inactive: -1.15%. In the case of `CP(=O)(OCCOc1ccccc1)OCCOc1ccccc1`, the activation is inactive: -0.81%. Regarding `Cc1nc2ccc3ccccc3c2o1.O=[N+]([O-])c1cc([N+](=O)[O-])c(O)c([N+](=O)[O-])c1`, the activation was inactive: 1.96%.

As to `COc1ccc(OP(C)(=O)Nc2ccccc2Br)cc1` (configuration not stated), the activation is inactive: 0.42%. As to `COc1ccccc1OP(C)(=O)Nc1ccc(C)c(C)c1` (configuration not stated), the activation was inactive: -0.91%. In the case of `Cc1cc(C)cc(OP(C)(=O)Nc2cccc(C(F)(F)F)c2)c1` (configuration not stated) it was inactive: -1.59%; in that of `CP(=O)(OC12CC3CC(CC(C3)C1)C2)OC12CC3CC(CC(C3)C1)C2`, inactive: -1.43%. For `CCOC(=O)c1ccc(NP(C)(=O)Oc2ccc(Cl)cc2)cc1` (configuration not stated), the activation is inactive: 1.97%.

With `Nc1ccc2c(ccc3cccnc32)n1.O=[N+]([O-])c1cc([N+](=O)[O-])c(O)c([N+](=O)[O-])c1`, the activation was inactive: -0.35%. Turning to `CN(C)C(=O)c1c([N+](=O)[O-])cc([N+](=O)[O-])cc1[N+](=O)[O-]`, the activation was inactive: -0.06%. As for `CP(=O)(Nc1ccc(Cl)cc1)Oc1ccc(F)cc1` (configuration not stated), the activation was inactive: 0.38%. Take `COc1ccccc1OP(C)(=O)Nc1ccccc1Br` (configuration not stated): the activation is inactive: 0.06%. With `CC(C)(C)c1ccc(OP(C)(=O)O)cc1` the figure was inactive: 0.42%; with `CCc1ccc(OP(C)(=O)Nc2cccnc2)cc1` (configuration not stated), inactive: -0.55%.

On to `CP(=O)(Oc1ccccc1)N1CCOC1=O` (configuration not stated), for which the activation was inactive: 1.26%. On to `O=C(OCCCN1CCCC1)C(O)(c1ccccc1)C1CCCCC1` (configuration not stated), for which the activation was inactive: -0.15%. In the case of `COc1ccccc1OP(C)(=O)Nc1c(C)n(C)n(-c2ccccc2)c1=O` (configuration not stated), the activation is inactive: 4.11%. With `COc1ccc(OP(C)(=O)Nc2ccc(Br)cc2)cc1` (configuration not stated) the figure was inactive: 1.89%. For the compound `CCN(CC)CC(O)COC(=O)C(O)(c1ccccc1)C1CCCCC1` (configuration not stated), the activation is inactive: 0.4%.
